Like-named read-outs stand apart in the source and are kept apart here.
How the values were obtained:
hIBAT [1] = target: T1, hIBAT (Homo sapiens, UniProt Q12908); test: Inhibition of radiolabeled taurocholate uptake in hIBAT-transfected CHO cells; settings: read-out: hIBAT, IC50, inhibition of tritiated taurocholate uptake
Description: (§1) CHO cells transfected with either the hIBAT or hLBAT transporter were seeded into 96-well microtiter plates at 100,000 cells/well in 100 μL DMEM containing 10% serum, glutamine and Penstrep. After overnight incubation the media was removed and test compound (25 μL) added at 2× the final desired concentration. Tritiated taurocholate (50,000 CPM/well) was diluted with cold substrate to a final concentration of 5 μM and 25 μL/well of this mixture was added to the plate. After incubating for 1 h at room temperature the solution was removed and the plate washed 4× with PBS at 4° C. 200 μL/well of scintillant is added and the plate then read in a Wallac microbeta counter. The inhibition data is processed by standard methods to calculate an inhibition constant IC50 for the test compound.

Amino acid sequences for entries named in this document (tags omitted).
UniProt Q12908, whole entry: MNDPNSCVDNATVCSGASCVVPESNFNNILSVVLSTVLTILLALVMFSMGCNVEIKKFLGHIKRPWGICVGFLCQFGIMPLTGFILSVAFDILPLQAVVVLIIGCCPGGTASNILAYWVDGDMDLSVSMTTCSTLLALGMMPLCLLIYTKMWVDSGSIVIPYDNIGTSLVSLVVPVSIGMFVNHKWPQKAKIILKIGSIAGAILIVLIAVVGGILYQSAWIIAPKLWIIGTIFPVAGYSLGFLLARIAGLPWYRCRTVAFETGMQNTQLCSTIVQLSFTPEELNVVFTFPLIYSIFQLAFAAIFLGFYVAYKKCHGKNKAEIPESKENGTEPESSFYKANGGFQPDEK
UniProt Q14973, whole entry: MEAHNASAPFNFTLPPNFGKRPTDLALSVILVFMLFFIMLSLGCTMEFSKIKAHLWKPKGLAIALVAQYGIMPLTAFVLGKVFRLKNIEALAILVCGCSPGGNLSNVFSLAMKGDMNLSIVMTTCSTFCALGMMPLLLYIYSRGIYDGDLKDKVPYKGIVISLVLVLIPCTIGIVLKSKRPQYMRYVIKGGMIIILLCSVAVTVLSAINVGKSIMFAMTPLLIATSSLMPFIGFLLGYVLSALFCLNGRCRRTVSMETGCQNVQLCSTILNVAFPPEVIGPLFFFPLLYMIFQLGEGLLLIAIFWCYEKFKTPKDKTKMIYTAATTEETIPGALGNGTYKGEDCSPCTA

hLBAT = hLBAT (Homo sapiens, UniProt Q14973); test: Inhibition of radiolabeled taurocholate uptake in hLBAT-transfected CHO cells; settings: read-out: hLBAT, IC50, inhibition of tritiated taurocholate uptake
Description: as §1

hIBAT [2] = target: T1, hIBAT; test: Electrogenic transport in Xenopus oocytes expressing hIBAT (oocyte assay); settings: relative to glycodeoxycholic acid (GDC) in transporter-expressing oocytes, test sample concentration 100 μM
From the text: RNA preparation: Human IBAT and LBAT Transporter cDNAs were subcloned into a modified pGEM plasmid that contains 5′ and 3′ untranslated sequences from the Xenopus β-actin gene. These sequences increase RNA stability and protein expression. Plasmid cDNA was linearized and used as template for in vitro transcription (Epicentre Technologies transcription kit, 4:1 methylated:non-methylated GTP).
Xenopus oocyte isolation. Xenopus laevis frogs were anesthetized by immersion in Tricaine ([…] in deionized water) for 15 min. Oocytes were removed and digested in frog ringer solution (90 mM NaCl, 2 mM KCl, 1 mM MgCl2, 10 mM NaHEPES, pH 7.45, no CaCl2) with 1 mg/mL collagenase (Worthington Type 3) for 80-100 min with shaking. The oocytes were washed 6 times, and the buffer changed to frog ringer solution containing CaCl2 (1.8 mM). Remaining follicle cells were removed if necessary. Cells were incubated at 16° C., and each oocyte injected with […] RNA in 45 μL solution.
Electrophysiology measurements. Transport currents were measured 2-14 days after injection, using a standard two-electrode electrophysiology set-up (Geneclamp 500 amplifier, Digidata 1320/PCLAMP software and ADInstruments hardware and software were used for signal acquisition). Electrodes ([…]) were microfabricated using a Sutter Instrument puller and filled with 3M KCl. The bath was directly grounded (transporter currents were less than 0.3 μA). Bath flow was controlled by an automated perfusion system (ALA Scientific Instruments, solenoid valves).
For transporter pharmacology, oocytes were clamped at −60 to −90 mV, and continuous current measurements acquired using PowerLab Software and an ADInstruments digitizer. Current signals were lowpass filtered at 20 Hz and acquired at 4-8 Hz. All bath and compound-containing solutions were frog ringers solution containing CaCl2. Compounds were applied for 10-30 seconds until the induced current reached a new steady-state level, followed by a control solution until baseline currents returned to levels that preceded compound application. The difference current (baseline subtracted from peak current during compound application) reflected the net movement of charge resulting from electrogenic transport and was directly proportional to tranport rate. Recordings were made from a single oocyte for up to 60 min, enabling 30-40 separate compounds to be tested per oocyte. To compare results between oocytes expressing different levels of transport activity, a saturating concentration of glycodeoxycholate (300 μM) was used as a common reference to normalize results from test compounds. Using this normalization procedure Vmax (i.e. maximal induced current) for different compounds tested on different oocytes could be compared.

[3] = Table 9, radiolabelled competition assay in transporter-expressing CHO cells
[4] = Table 12, drug/drug surrogate conjugates
[5] = Table 11, drug/drug surrogate conjugates, transporter-expressing CHO cells

Compound	IC50 (hIBAT [1]; [3]) [µM]	IC50 (hLBAT; [3]) [µM]	% Max GDC (hIBAT [2]; Table 10) [%]	other results
C[C@H](CCC(=O)O)[C@H]1CC[C@H]2[C@@H]3[C@H](O)C[C@@H]4Cc5nn(Cc6cccc(O)c6)cc5C[C@]4(C)[C@H]3CC[C@]12C	4.5	0.7		
COc1ccc2cc([C@H](C)C(=O)Oc3cccc(Cn4cc5c(n4)C[C@H]4CC[C@@H]6[C@H](CC[C@]7(C)[C@@H]([C@H](C)CCC(=O)NCC(=O)O)CC[C@@H]67)[C@@]4(C)C5)c3)ccc2c1				% Max GDC (hIBAT [2]; [4]): 0%
C[C@H](CCC(=O)O)[C@H]1CC[C@H]2[C@@H]3CC[C@@H]4Cc5nn(CCO)cc5C[C@]4(C)[C@H]3CC[C@]12C	> 300	110	40	
COc1ccc2cc([C@H](C)C(=O)Oc3cccc(Cn4cc5c(n4)C[C@H]4C[C@@H](O)[C@@H]6[C@H](CC[C@]7(C)[C@@H]([C@H](C)CCC(=O)NCC(=O)O)CC[C@@H]67)[C@@]4(C)C5)c3)ccc2c1				% Max GDC (hIBAT [2]; [4]): 12%
C[C@H](CCC(=O)NCC(=O)O)[C@H]1CC[C@H]2[C@@H]3CC[C@@H]4Cc5nc(-c6ccc(C(N)=O)cc6)ncc5C[C@]4(C)[C@H]3CC[C@]12C			8	
C[C@H](CCC(=O)O)[C@H]1CC[C@H]2[C@@H]3[C@H](O)C[C@@H]4Cc5[nH]ncc5C[C@]4(C)[C@H]3CC[C@]12C	2.5	0.6	18	
C[C@H](CCC(=O)NCC(=O)O)[C@H]1CC[C@H]2[C@@H]3[C@H](O)C[C@@H]4Cc5nn(CCO)cc5C[C@]4(C)[C@H]3CC[C@]12C			13	
CCC(COC(=O)OCCn1cc2c(n1)C[C@H]1CC[C@@H]3[C@H](CC[C@]4(C)[C@@H]([C@H](C)CCC(=O)NCC(=O)O)CC[C@@H]34)[C@@]1(C)C2)c1ccccc1 (some centres unmarked)				IC50 (hIBAT [1]; [5]): > 300 µM; IC50 (hLBAT; [5]): 3.2 µM; % Max GDC (hIBAT [2]; [4]): 0%
C[C@H](CCC(=O)NCC(=O)O)[C@H]1CC[C@H]2[C@@H]3CC[C@@H]4Cc5[nH]ncc5C[C@]4(C)[C@H]3CC[C@]12C	62		26	
C[C@H](CCC(=O)O)[C@H]1CC[C@H]2[C@@H]3CC[C@@H]4Cc5nn(Cc6cccc(O)c6)cc5C[C@]4(C)[C@H]3CC[C@]12C	240	0.7		
C[C@H](CCC(=O)O)[C@H]1CC[C@H]2[C@@H]3[C@H](O)C[C@@H]4Cc5nn(CCO)cc5C[C@]4(C)[C@H]3CC[C@]12C	> 300	4	7	
C[C@H](CCC(=O)NCC(=O)O)[C@H]1CC[C@H]2[C@@H]3[C@H](O)C[C@@H]4Cc5nn(Cc6cccc(O)c6)cc5C[C@]4(C)[C@H]3C[C@H](O)[C@]12C			8	
C[C@H](CCC(=O)O)[C@H]1CC[C@H]2[C@@H]3CC[C@@H]4Cc5[nH]ncc5C[C@]4(C)[C@H]3CC[C@]12C	> 300	26		
C[C@H](CCC(=O)NCC(=O)O)[C@H]1CC[C@H]2[C@@H]3CC[C@@H]4Cc5nn(Cc6cccc(O)c6)cc5C[C@]4(C)[C@H]3CC[C@]12C			27	
C[C@H](CCC(=O)O)[C@H]1CC[C@H]2[C@@H]3CC[C@@H]4Cc5[nH]c(=O)ncc5C[C@]4(C)[C@H]3CC[C@]12C	70	41	40	

Reference: patent US7727976B2
